US8436186B2, “Thiazolyl piperidine derivatives” (Merck Patent Gesellschaft mit beschrankter Haftung, priority 2008, dated 2013)

By UniProt entry, the sequences of proteins in these tests, tags left out.
UniProt Q9NYA1, whole entry: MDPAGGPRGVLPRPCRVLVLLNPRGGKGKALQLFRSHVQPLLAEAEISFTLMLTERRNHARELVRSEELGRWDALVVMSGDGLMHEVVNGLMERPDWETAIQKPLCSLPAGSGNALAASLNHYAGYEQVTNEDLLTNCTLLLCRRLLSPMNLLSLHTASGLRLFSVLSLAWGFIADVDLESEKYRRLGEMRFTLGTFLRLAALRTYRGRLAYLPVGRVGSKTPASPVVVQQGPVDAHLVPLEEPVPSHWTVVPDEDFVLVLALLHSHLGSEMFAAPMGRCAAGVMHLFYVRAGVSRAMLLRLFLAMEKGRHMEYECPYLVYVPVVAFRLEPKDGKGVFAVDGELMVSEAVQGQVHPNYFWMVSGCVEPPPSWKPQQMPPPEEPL

Biological target: SphK1 (Homo sapiens, UniProt Q9NYA1)
Test: SphK1 384-well flashplate kinase assay
Type: biochemical
Details: enzyme assay
Protocol: The kinase assay is carried out as a 384-well flashplate assay.
5 nM modified SphK1, 800 nM omega-biotinyl-D-erythro-sphingosine and 1 μM ATP (with 0.3 μCi of ^33P-ATP/well) are incubated in a total volume of 50 μl (25 mM HEPES, 5 mM MgCl2, 1 mM dithiothreitol, 0.01% of Brij35, 0.1% of BSA (fatty acid-free), pH 7.4) without or with test substance (5-10 concentrations) at 30° C. for 120 min. The reaction is terminated using 25 μl of 200 mM EDTA solution, filtered off with suction at room temperature after 30 min, and the cavities are washed 3 times with 100 μl of 0.9% NaCl solution. The non-specific proportion of the kinase reaction (blank) is determined using 0.5 mM NaCl. Radioactivity is measured in topcount. IC50 values are calculated using RS1.

An IC50 greater than 10 µM was found for `CC(C)(C)OC(=O)NCCN1CCC(c2nc(-c3ccc4c(c3)C(C)(C)CCC4(C)C)cs2)CC1` [Compound A37, tert-butyl (2-{4-[4-(5,5,8,8-tetramethyl-5,6,7,8-tetrahydronaphthalen-2-yl)thiazol-2-yl]piperidin-1-yl}ethyl)carbamate] in this work.
